According to patent US11517645B2, “Bone-tendon graft biomaterial, use as a medical device and method of making same” (The Board of Trustees of the Leland Stanford Junior …, priority 2016, dated 2022):

Key:
[1] = test system: C2C12 cells; assay: ALP staining, C2C12 osteoblast differentiation on QHM polymers with BMP-2 in media; format: cell-based, mouse
Description: ALP activity was detected according to the manufacturer's instructions (Sigma Aldrich, St. Louis, Mo.) as previously described with minor modifications^18,19.
For studies on the effect of Young's moduli on osteoblast differentiation (using uniform QHM polymer samples), C2C12 cells were seeded into 24 well plates containing uncoated QHM polymer samples (circular discs approximately 1 cm in diameter) at a density of 7.47×10^4 cells per cm^2 overnight in DMEM, 10% FBS and 1% PS media. The following day (Day 0), the media were changed to DMEM, 10% FBS, 1% PS, 100 ng/mL BMP-2 and 0.3% DMSO (With BMP-2 and DMSO) or DMEM, 10% FBS, 1% PS, 100 ng/mL BMP-2 and 25 μM blebbistatin (Selleck Chemicals, Houston, Tex.; With BMP-2 and blebbistatin). Media were changed every 48 h. ALP staining was performed at 4, 8 and 14 days. ALP inhibitory index was defined as the ratio of ALP activity for blebbistain-treated cells to DMSO-treated cells—a value of 1.0 indicated no inhibition while a value of 0.0 indicated complete inhibition.
For studies on the effect of Young's moduli on osteoblast differentiation (using 0 s:300 s UV mechanically-graded QHM polymer samples), C2C12 cells were seeded into 24 well plates containing uncoated QHM polymer samples (rectangular specimens measuring approximately 0.5 cm×1 cm) at a density of 7.47×10^4 cells per cm^2 overnight in DMEM, 10% FBS and 1% PS media. The following day (Day 0), the media were changed to DMEM, 10% FBS, 1% PS, 100 ng/mL BMP-2. Media were changed every 48 h. ALP staining were performed at 3 days post-seeding.
At designated time points, cells were fixed for 1 min in 3.7% formaldehyde and samples were incubated with ALP stain for 1 h. Color images of samples were acquired using an inverted Zeiss AxioObserver Z1 microscope equipped with an AxioCam ICC color camera and a Nikon D70 Digital camera (Nikon Corp., Tokyo, Japan). Where required, the ALP-stained images were quantified by calculating the average pixel intensity in Adobe Photoshop 7.0 as previously described^18,19.

[2] = test system: C57BL-6J mice; assay: Mouse subcutaneous implantation of growth factor-biopatterned QHM grafts; format: in vivo; conditions: 3 μg patterned on fibrin-coated QHM polymer, 14 days subcutaneous
Description: Mouse subcutaneous surgeries were performed in accordance with the guidelines established by Stanford University's Administrative Panel on Laboratory Animal Care. Wild-type C57BL-6J mice (Charles River Laboratories, Wilmington, Mass.) between 8 and 12 weeks of age (20-30 g) were used in this study. All mice were maintained in the Stanford Animal Facility, with a 12:12 h light-dark cycle and free access to standard laboratory food and water. Mice were anesthetized by inhalation with isoflurane (4% for induction, 2% for maintenance, Abbott Laboratories, Chicago) as well as administered 0.05 mg/kg Buprenorphine (Hospira Inc., Lake Forest, Ill.) and 25 mg/kg Cefazolin (Thermo Fisher Scientific, Waltham, Mass.) as an analgesic and anti-infective, respectively. Grafts (Square specimens 6×6×1 mm) were comprised of 0 s UV and 300 s UV QHM polymer regions (each measuring 3×3×1 mm) biopatterned with 1) no growth factor, 2) 3 μg FGF-2 on 0 s UV QHM polymer region and 3 μg BMP-2 on 300 s UV QHM polymer region or 3) 3 μg GDF-7 on 0 s UV QHM polymer region and 3 μg BMP-2 on 300 s UV QHM polymer region. Under sterile conditions, a 2.5 cm skin incision was made and grafts were sutured subcutaneously to the skin using 3-0 Nylon sutures (Oasis, Med-Vet International, Mettawa, Ill.) in a bilateral manner. Subsequently, the skin was re-approximated and closed with 3-0 Nylon sutures. […]

[3] = test system: C2C12 cells; assay: ALP staining, C2C12 on BMP-2-biopatterned fibrin-coated QHM polymers; format: cell-based, mouse; conditions: fibrin-coated QHM polymers in vitro, 6 days
Description: QHM polymer samples were double-coated with fibrin as previously described with minor modifications^18,19,29-32,48-50. Briefly, QHM polymer samples were incubated with 1 mg/mL fibrinogen (Enzyme Research Laboratories, South Bend, Ind.) in 10 mM sodium phosphate, pH 7.4 (Thermo Fisher Scientific, Waltham, Mass.) overnight. The following day, QHM polymer samples were washed with phosphate-buffered saline (PBS; Life Technologies, Carlsbad, Calif.) to remove unbound fibrinogen and fibrin-coated via incubation with 4 U/mL thrombin (Enzyme Research Laboratories, South Bend, Ind.) for 2 h at 37° C. […] Fibrin-coating was monitored using Alexa Fluor®-conjugated fibrinogen (Life Technologies, Carlsbad, Calif.) on QHM polymer samples (circular discs approximately 1 cm in diameter). Fluorescence images were acquired on an inverted Zeiss AxioObserver Z1 microscope (Carl Zeiss Microimaging, Thornwood, N.Y.) equipped with an X-Cite® Series 120Q metal halide lamp, appropriate filters and an AxioCam MRm camera (Carl Zeiss Microimaging, Thornwood, N.Y.). […]
At designated time points, cells were fixed for 1 min in 3.7% formaldehyde and samples were incubated with ALP stain for 1 h. […] Where required, the ALP-stained images were quantified by calculating the average pixel intensity in Adobe Photoshop 7.0 as previously described^18,19.

[4] = 200 ng/mL versus 100 ng/mL, 4 days

B1: BMP-2: Recombinant human bone morphogenetic protein-2 (Medtronic), bone-promoting cue (protein, UniProt P12643 283-396, looked up)
Bone morphogenetic protein 2: QAKHKQRKRLKSSCKRHPLYVDFSDVGWNDWIVAPPGYHAFYCHGECPFPLADHLNSTNHAIVQTLVNSVNSKIPKACCVPTELSAISMLYLDENEKVVLKNYQDMVVEGCGCR
- Effect of increased BMP-2 dose on ALP activity, cells on QHM polymers [1, 4]: increased the ALP activity
- Effect of increased BMP-2 dose on ALP activity, cells on TCPS [1, 4]: had no effect
- Effect of increased BMP-2 administration on ALP activity, cells on QHM polymers subjected to longer UV-exposure ([1]; 6 days versus 4 days BMP-2): increased the ALP activity
- Effect of increased BMP-2 administration on ALP activity, cells on TCPS ([1]; 6 days versus 4 days BMP-2): had no effect
- Tissue formed on growth factor pattern in vivo [2]: reminiscent of immature bone
- C2C12 ALP activity on BMP-2 patterns relative to off pattern controls [3]: largely increased
